# Test results published in US20140165223A1, “TNF SUPERFAMILY TRIMERIZATION INHIBITORS” (B.S.R.C. "Alexander Fleming", priority 2011, published 2014).
# Assays:
# L929 cells = assay: L929 cytotoxicity assay of GST-TNF variants; assay type: cell-based, murine; settings: 0.03-4 ng/ml and 240 ng/ml
# Procedure: FIG. 6. G122R substitution abrogates TNF trimer formation, binding to TNFR and bioactivity. […] Data shown as mean±SEM of a representative experiment performed in triplicate. (FIG. 6C) L929 cytotoxicity assay was performed in the presence of WT GST-TNF or GST-TNF^G122R at serial dilutions (0.03-4 ng/ml). Data shown as mean±SEM of three experiments performed in triplicate.
# The biological activity of the GST-TNF^G122R variant was tested using in vitro cytotoxicity assays.
# TNF = assay: Chemical cross-linking of soluble TNF proteins (trimer formation); assay type: biochemical, human; settings: DSS cross-linking, soluble protein
# Procedure: The G278 residue of RANKL is highly conserved among various members of the TNF superfamily (FIG. 2E). Thus, we investigated whether a similar substitution in soluble human TNF, which corresponds to a replacement of glycine with arginine at position 122 (G122R), modifies TNF trimerization and function.
# (§1) The chemical cross-linking reagent disuccinimidyl suberate (DSS, Sigma) was used to examine the trimeric property of RANKL and TNF.^[33] 50 mM of DSS was prepared as a stock solution in dimethyl sulfoxide (DMSO). RANKL or TNF proteins at a final concentration of 0.1 mM in PBS buffer (pH 7.5) were mixed with 1 mM DSS (the molar ratio of DSS is 10:1). The cross-linking reactions were carried out for 1 hour at room temperature and terminated with 50 mM Tris (pH 7.5) for 30 minutes. Proteins from reaction mixtures were separated on 12% SDS-PAGE, followed by staining with Coomassie blue R-250 or proceeded in Western blot.
# RANKL = assay: Chemical cross-linking of soluble RANKL proteins (trimer formation); assay type: biochemical, mouse; settings: DSS, soluble protein
# From the text: The inability of the soluble RANKL^G278R protein to form trimers was then verified using chemical cross-linking (FIG. 4B). GST was removed from the RANKL protein with proteolytic cleavage of GST-RANKL bound on glutathione-beads. Even though, soluble WT RANKL was released efficiently from the beads, the majority of the soluble RANKL^G278R protein remained bound on the beads after digestion (data not shown). This phenomenon indicates increased hydrophobicity of the RANKL^G278R protein due to the formation of hydrophobic protein-protein interactions.
# as §1
molecule,measurement,setting,value
"GST-TNF^G122R: extracellular domain of human TNF with G122R substitution, fused to GST",cytotoxicity in L929 cells,L929 cells,inefficient to induce cytotoxicity
TNF^G122R: soluble human TNF with glycine to arginine substitution at position 122,TNF trimer formation,TNF,abrogated trimer formation
"RANKL^G278R: murine RANKL with glycine to arginine substitution at residue 278; soluble or full-length Myc-tagged (protein, UniProt O35235 139-316, looked up, variant G278R, Myc tag, murine RANKL with glycine to arginine substitution at residue 278; soluble or full-length Myc-tagged) Tumor necrosis factor ligand …: FSGAPAMMEGSWLDVAQRGKPEAQPFAHLTINAASIPSGSHKVTLSSWYHDRGWAKISNMTLSNGKLRVNQDGFYYLYANICFRHHETSGSVPTDYLQLMVYVVKTSIKIPSSHNLMKGGSTKNWSGNSEFHFYSINVGRFFKLRAGEEISIQVSNPSLLDPDQDATYFGAFKVQDID",forms detected after cross-linking,RANKL,only the monomer form and a high molecular weight “aggregate” form
